Test results as given in patent US20080199423A1, “Methods of Using Apo2l Receptor Agonists and Ink Cell Activators” (GENENTECH, INC., priority 2004, published 2008).

Tested on: cell surface Apo2L/TRAIL on NK cells
Experiment: Flow cytometry of cell surface Apo2L/TRAIL on purified NK cells
Assay type: cell-based, human
Conditions: 5C2-Alexa 488 staining
Experimental: Cell surface Apo2L/TRAIL on purified NK cells treated with poly(I:C), R-848 or hIL-2 (30 ng/ml, BD Biosciences) was also analyzed by cytometry. Isotype control (IgG2a, Sigma) and anti-Apo2L/TRAIL antibody (5C2) were labeled with Alexa 488 (Molecular Probes). 5×10^5 cells were incubated with 2 μg of human IgG to block FcRs and 1 μg of the directly labeled mAbs at 4° C. for 45 minutes, followed by 2 washes. Stained cells were analyzed using a FACScan cytometer (Becton Dickenson) and Cellquest software.

IL-2: hIL-2 (30 ng/ml, BD Biosciences), positive control
Cell surface expression of Apo2L/TRAIL on NK cells: increases the expression
